Data on two compounds can be found in patent US4710500A, “1-(4'-fluorophenyl)-3,5-substituted indoles useful in the treatment of psychic disorders and pharmaceutical compositions thereof” (H. Lundbeck A/S, priority 1985, dated 1987).

The chains behind the UniProt entries cited, without tags or fusion partners.
UniProt P61169, whole entry: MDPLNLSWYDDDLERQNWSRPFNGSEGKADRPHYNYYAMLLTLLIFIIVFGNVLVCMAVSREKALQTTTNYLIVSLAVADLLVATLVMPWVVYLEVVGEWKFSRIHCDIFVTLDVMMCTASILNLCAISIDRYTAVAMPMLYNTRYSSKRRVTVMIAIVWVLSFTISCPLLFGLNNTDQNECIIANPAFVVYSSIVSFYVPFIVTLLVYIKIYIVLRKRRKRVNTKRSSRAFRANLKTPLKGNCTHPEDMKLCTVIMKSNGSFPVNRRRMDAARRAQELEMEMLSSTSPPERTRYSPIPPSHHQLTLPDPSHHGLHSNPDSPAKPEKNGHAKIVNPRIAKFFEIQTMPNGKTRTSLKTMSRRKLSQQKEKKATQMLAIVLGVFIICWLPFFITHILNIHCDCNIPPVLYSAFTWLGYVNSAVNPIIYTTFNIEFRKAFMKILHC
UniProt P14842, whole entry: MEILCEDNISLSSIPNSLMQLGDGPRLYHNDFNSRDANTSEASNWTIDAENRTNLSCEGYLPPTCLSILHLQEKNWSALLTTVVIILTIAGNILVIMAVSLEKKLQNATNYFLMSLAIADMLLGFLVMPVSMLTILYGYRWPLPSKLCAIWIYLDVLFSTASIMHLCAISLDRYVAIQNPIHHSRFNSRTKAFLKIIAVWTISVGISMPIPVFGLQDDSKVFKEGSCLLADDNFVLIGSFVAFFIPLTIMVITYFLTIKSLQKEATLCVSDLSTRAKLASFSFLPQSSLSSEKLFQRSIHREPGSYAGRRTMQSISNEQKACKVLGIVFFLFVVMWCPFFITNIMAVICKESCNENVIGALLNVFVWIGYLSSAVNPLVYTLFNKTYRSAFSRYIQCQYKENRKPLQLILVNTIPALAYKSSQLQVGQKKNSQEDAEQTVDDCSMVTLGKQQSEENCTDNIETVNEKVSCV

Each structure is given as a SMILES string. Counter-ions that a name gives are not always drawn.

A short description of one data set: in vivo. As to conditions: mouse, iv.
The target in data set [1] is T1, dopamine (DA) D-2 receptors (Rattus norvegicus, UniProt P61169).
T1 construct: DA D-2 receptors in rat striatal membranes; from tissue; host or cells: rat striatal membranes
Nature of the data set: 3H-spiroperidol binding, dopamine D-2 receptors in rat striatal membranes. The note with it: in vitro, read-out: 3H-Spiroperidol bindings DA-2 receptors IC50.

Data set [2] concerns the target T2, serotomin2 (5-HT2) receptors (Rattus norvegicus, UniProt P14842).
T2 construct: 5-HT2 receptors in rat cortical membranes; from tissue; host or cells: rat cortical membranes
Nature of the data set: 3H-spiroperidol binding, 5-HT2 receptors in rat cortical membranes. As to conditions: in vitro, read-out: 3H-Spiroperidol bindings 5-HT2 receptors IC50.

For orientation: LD50 means the dose expected to kill half of the subjects tested. High values mean a less toxic substance, low ones a more toxic substance. For `OCCN1CCN(CC/C=C2/c3ccccc3Sc3ccc(C(F)(F)F)cc32)CC1` [Cis(Z)Flupentixol, reference compound], the median lethal dose (LD50) in “in vivo” was 120 to 180 µmol/kg.

The IC50 is the concentration that inhibits the measured activity by half. Turning to `O=C1NCCN1CCN1CCC(c2cn(-c3ccc(F)cc3)c3ccc(Cl)cc23)CC1` [Lu 23-174, 5-Chloro-1-(4'-fluorophenyl)-3-(1-(2-imidazolidinon-1-ylethyl)-4-piperidyl)-1H-indole, maleate], the 50% inhibitory concentration (IC50) was 20 nM in data set [1] and 6.6 nM in data set [2].
